Source: PubChem BioAssay AID504810 (National Center for Advancing Translational Sciences (NCATS), 2011)
Only a part is listed here, and it is no random draw. Some salts or complexes appear as unconnected parts, following the source record. Active and inactive are the calls of the source.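 The calls were made as follows: active = activity change below a set negative limit, meaning inhibition stronger than a set level (cut at about -70% in these data); inconclusive = activity change between two set negative limits; inactive = the rest.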

Amino acid sequences for entries named in this document (tags omitted).
UniProt P16473, whole entry: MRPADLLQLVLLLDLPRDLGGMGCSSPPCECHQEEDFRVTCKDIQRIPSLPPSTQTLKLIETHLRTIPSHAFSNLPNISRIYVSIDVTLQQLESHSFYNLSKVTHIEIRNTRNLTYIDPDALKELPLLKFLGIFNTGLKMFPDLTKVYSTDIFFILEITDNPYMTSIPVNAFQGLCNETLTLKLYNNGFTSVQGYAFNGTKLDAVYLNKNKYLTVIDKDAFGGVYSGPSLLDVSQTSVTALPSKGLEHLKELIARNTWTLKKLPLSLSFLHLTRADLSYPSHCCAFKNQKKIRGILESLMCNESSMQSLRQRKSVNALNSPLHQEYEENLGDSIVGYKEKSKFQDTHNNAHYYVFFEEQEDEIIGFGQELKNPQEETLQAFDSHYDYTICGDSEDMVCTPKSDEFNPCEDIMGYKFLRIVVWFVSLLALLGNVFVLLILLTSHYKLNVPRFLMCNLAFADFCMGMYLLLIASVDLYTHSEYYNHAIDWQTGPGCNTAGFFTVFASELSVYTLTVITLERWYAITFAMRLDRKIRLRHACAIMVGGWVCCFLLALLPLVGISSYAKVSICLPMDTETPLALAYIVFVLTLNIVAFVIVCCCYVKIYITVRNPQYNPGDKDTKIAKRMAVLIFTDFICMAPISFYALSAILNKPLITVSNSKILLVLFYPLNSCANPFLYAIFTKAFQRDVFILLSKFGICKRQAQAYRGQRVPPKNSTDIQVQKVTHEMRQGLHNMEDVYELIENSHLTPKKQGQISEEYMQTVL

These molecules were tested against Thyrotropin receptor (Homo sapiens) (UniProt P16473) (assay: Antagonists of the Thyroid Stimulating Hormone Receptor: HTS campaign). Settings: TSHR-expressing cells, TSH-stimulated cAMP HTRF, 2 h; at 11.5 µM; active compounds read low.
Description: The thyroid-stimulating hormone receptor (TSHR) is a member of the 7 trans-membrane-spanning receptor (7TMR) family of cell surface receptors. TSHR-mediated hyperthyroidism is important in thyroid pathology. The development of small molecule antagonists of TSHR may lead to therapeutic approaches for TSHR-mediated hyperthyroidism caused by constitutively activating mutations or stimulating auto-antibodies associated with Graves' disease. Graves' disease is the leading cause of hyperthyroidism and is caused by autoantibodies that stimulate TSHR (TsAbs) causing thyroid growth and unregulated overproduction of thyroid hormones and existing treatments have liabilities (agranulocytosis). In addition, TSHRs are known to be expressed in multiple extrathyroidal tissues including bone, brain, kidney, testis, fat and cells of the immune system but the role of the TSHR in these tissues is not clear. Therefore, TSHR antagonists/inverse agonists could be used as probes of extrathyroidal TSHR function. Finally, TSHR inverse agonists, which are a subclass of antagonists that inhibit agonist-independent (or basal or constitutive) TSHR signaling, could be used to inhibit TSH-independent signaling in patients with recurrent or metastatic thyroid cancer who are receiving thyroid hormone to suppress TSH. In collaboration between scientist from the NCGC and the NIDDK, a miniaturized HTRF high-throughput screen was developed. It's a cell based assay, where an anti cAMP antibody contains a fluorescent cryptate tag (excitation 337 nm; emission 620 nm) and the acceptor is cAMP-d2 (excitation 620 nm; emission 665 nm). When antibody and cAMP-d2 interact and are excited by a 337 nm light, a FRET occurs resulting in emission at 665 nm. The assay is competition between cAMP-d2 and cAMP (from the cell lysate). The homogeneous protocol allows for one step dispense after stimulation that is automation friendly. NIH Chemical Genomics Center [NCGC] NIH Molecular Libraries Probe Centers Network [MLPCN] MLPCN Grant: MH090855-01 Assay Submitter (PI): Marvin Gerhengorn
1. 3ul of 200 TSHR freshly harvested cells/well are dispensed into a 1536 TC-treated white solid bottom plate. 2. Through pintool addition, 23nl of compounds and control in 100% DMSO are added to the plate. 3. Then 1ul of EC80 TSH (4nM final) is added to the plate. 4. Assay is incubated at 37 deg C for 2 hours. 5. 2ul of cAMP antibody diluted 1:20 in lysis buffer is added. 6. Immediately following, 2ul of d2 diluted 1:20 in HBSS is added seperately. 7. The assay is incubated for 30 minutes at ambient room temperature. 8. The result is obtained by using a ViewLux read-out with HTRF settings.
% is scaled to controls: 0 for no effect and ±100 for the full control effect.

Compound	activity change, negative = inhibition
O=C(NCC1(N2CCCCC2)CCCCC1)c1ccco1	inactive: 10.3%
CN(C)c1ccc(C(=O)NCC2(N3CCCCC3)CCCCC2)cc1	inactive: -2.32%
CCN1CCC(Nc2cccc(F)c2)CC1	inactive: 2.02%
Cc1ccc(C(=O)NCC2(N3CCCCC3)CCCCC2)o1	inactive: 0.769%
Fc1ccccc1NC1CCN(Cc2ccccc2)CC1	inactive: 6.35%
CCCOc1ccc(C)cc1CN(CCCl)CCCl	inactive: -6.33%
CN1CCC(Nc2ccc(Cl)cc2)CC1	inactive: 9.21%
CCC(CO)(C(=O)OC1CN2CCC1CC2)c1ccccc1 (stereo not drawn)	inactive: -5.6%
COc1cccc(C(=O)N(c2cc(C)cc(C)c2)C2CCN(C(=O)OC(C)(C)C)CC2)c1	inactive: -9.14%
COc1cc(OC)cc(C(=O)NCC2(N3CCOCC3)CCCCC2)c1	inactive: -9.64%
CCCOc1ccc(C(=O)NCC2(N(C)C)CCCCC2)cc1	inactive: 6.27%
CC(C)(C)OC(=O)N1CCC(Nc2ccccc2)CC1	inactive: -4.76%
O=C(O)C1(Nc2ccccc2)CCN(Cc2ccccc2)CC1	inactive: 4.73%
CCOc1ncccc1C(=O)NCC1(N2CCOCC2)CCCCC1	inactive: 4.94%
CN1CCC(Nc2ccc(F)c(Cl)c2)CC1	inactive: 5.79%
O=C(OC1CN2CCC1CC2)C1c2ccccc2C=Cc2ccccc21 (stereo not drawn)	inactive: 10.2%
CCc1cc(C(=O)NCC2(N3CCCCC3)CCCCC2)sc1C	inactive: 11%
O=C(O)c1cccc(Nc2c([N+](=O)[O-])cc([N+](=O)[O-])cc2[N+](=O)[O-])c1	inactive: -1.01%
N/C(=N\O)c1c(N)no[n+]1[O-]	inactive: 7.4%
CCOC(=O)N1CCC(Nc2ccc(C)cc2)CC1	inactive: -3.34%
COc1ccc(C(=O)NCC2(N3CCOCC3)CCCCC2)cc1OC	inactive: -8.39%
O=C(NCC1(N2CCOCC2)CCCCC1)c1cc(Br)ccc1Cl	inactive: -0.582%
COc1cc(C(=O)NCC2(N3CCOCC3)CCCCC2)cc(OC)c1C	inactive: -6.89%
c1ccc(CN2CCC(Nc3ccccc3)CC2)cc1	inactive: 1.76%
CCCN1CCC(Nc2cc(OC)cc(OC)c2)CC1	inactive: -1.81%

Compound	activity change, negative = inhibition
CN(C)C1(CNC(=O)c2cccc(C#N)c2)CCCCC1	inactive: -0.917%
CCOC(=O)C(CC)C1=NC(C)(C)Cc2ccccc21.O=[N+]([O-])c1cc([N+](=O)[O-])c(O)c([N+](=O)[O-])c1 (stereo not drawn)	inactive: 0.142%
CC(C)(C)OC(=O)N1CCC(N(C(=O)c2ccccc2)c2ccc(Cl)cc2)CC1	inactive: -7.16%
N#Cc1ccc(C(=O)NCC2(N3CCCCC3)CCCCC2)cc1	inactive: 1.6%
COc1ccc(NC2CCN(C(=O)OC(C)(C)C)CC2)cc1	inactive: 15.1%
CC(C)c1ccc(C(=O)NCC2(N3CCOCC3)CCCCC2)cc1	inactive: 0.576%
CN1CCN(CCOC(=O)C(O)(c2ccccc2)c2ccccc2)CC1	inactive: 2.1%
O=C(NCC1(N2CCOCC2)CCCCC1)c1cc(=O)[nH]c2ccccc12	inactive: 5.61%
COc1cc(C(=O)NCC2(N3CCCCC3)CCCCC2)ccc1OC(F)F	inactive: -2.3%
O=C(NCC1(N2CCCCC2)CCCCC1)c1cccc(C(F)(F)F)c1	inactive: 0.378%
O=[N+]([O-])c1cc([N+](=O)[O-])c(NCC2CCS(=O)(=O)C2)c([N+](=O)[O-])c1 (stereo not drawn)	inactive: 10.6%
CSc1ccc(C(=O)NCC2(N3CCOCC3)CCCCC2)cc1	inactive: 0.555%
O=C(NCC1(N2CCCCC2)CCCCC1)c1cccc([N+](=O)[O-])c1	inactive: -8.64%
CCN1CCC(Nc2ccc(Cl)cc2)CC1	inactive: 7.5%
N#CC1(Nc2ccccc2)CCN(CCc2ccccc2)CC1	inactive: -22.3%
O=C(NCC1(N2CCCCC2)CCCCC1)c1ccc(OC(F)F)cc1	inactive: 21.8%
CCCOc1ccc(C(=O)NCC2(N(C)C)CCCCC2)cc1OC	inactive: -0.794%
O=C(NCC1(N2CCCCC2)CCCCC1)c1cncc(Br)c1	inactive: 7.22%
COc1ccc2c(c1O)-c1c(O)c(OC)cc3c1[C@H](C2)[N+](C)(C)CC3.O=[N+]([O-])c1cc([N+](=O)[O-])c([O-])c([N+](=O)[O-])c1[O-]	inactive: -8.26%
O=C(OC1CN2CCC1CC2)c1ccc([N+](=O)[O-])cc1 (stereo not drawn)	inactive: 15.4%
COc1cc(OC)c(C(=O)NCC2(N(C)C)CCCCC2)cc1OC	inactive: 0.157%
O=C(NCC1(N2CCOCC2)CCCCC1)c1cc(F)c(F)cc1Cl	inactive: 12.2%
COc1ccc(CN(CCCl)CCCl)cc1Cl	inactive: 11.3%
CN(C)c1cccc(C(=O)NCC2(N3CCCCC3)CCCCC2)c1	inactive: -6.91%
O=[N+]([O-])c1cc([N+](=O)[O-])c(OC2CCCCC2O)c([N+](=O)[O-])c1 (stereo not drawn)	inactive: -13%

Compound	activity change, negative = inhibition
CC(C)c1ccc(NC2CCN(C(=O)OC(C)(C)C)CC2)cc1	inactive: -19.2%
CCOC(=O)N1CCC(Nc2ccc(OC)cc2)CC1	inactive: 2.85%
O=C(OC1CN2CCC1CC2)C1c2ccccc2Oc2ccccc21 (stereo not drawn)	inactive: 20.7%
N#CC1(Nc2ccccc2)CCN(Cc2ccccc2)CC1	inactive: -0.356%
O=C(NCC1(N2CCCCC2)CCCCC1)c1ccc(Cl)s1	inactive: 5.38%
COc1ccc(Cl)cc1C(=O)NCC1(N2CCOCC2)CCCCC1	inactive: 12.6%
O=C(NCC1(N2CCOCC2)CCCCC1)c1cc2ccccc2o1	inactive: 5.69%
O=C(NCC1(N2CCCCC2)CCCCC1)c1ccc(Cl)nc1	inactive: 9.89%
Cc1cc(C)cc(N(C(=O)c2ccccc2)C2CCN(C(=O)OC(C)(C)C)CC2)c1	inactive: 3.77%
CSc1ccccc1C(=O)NCC1(N2CCCCC2)CCCCC1	inactive: -10.6%
O=C(NCC1(N2CCCCC2)CCCCC1)c1ccc(=O)[nH]c1	inactive: 8.76%
O=C(NCC1(N2CCCCC2)CCCCC1)c1cccs1	inactive: -0.346%
COc1ccc(C(=O)NCC2(N3CCCCC3)CCCCC2)cc1	inactive: 23.3%
COc1ccc(C(=O)NCC2(N3CCCCC3)CCCCC2)c(OC)c1OC	inactive: 18%
CC(C)(C)OC(=O)N1CCC(N(C(=O)c2ccccc2)c2ccc(F)cc2)CC1	inactive: 3.43%
COc1cc(C(=O)NCC2(N(C)C)CCCCC2)ccc1OC(F)F	inactive: -3.26%
CCOC(=O)N1CCC(Nc2cccc(C)c2)CC1	inactive: 0.413%
Cc1ccc(OCC(C)C)c(CN(CCCl)CCCl)c1	inactive: -0.856%
O=C(NCC1(N2CCCCC2)CCCCC1)c1ccc(F)cc1	inactive: 0.39%
CCCCOc1ccc(C(=O)NCC2(N3CCOCC3)CCCCC2)cc1	inactive: 0.0404%
CCOC(=O)N1CCC(Nc2ccc(F)cc2)CC1	inactive: 8.7%
COc1ccc(NC2CCN(CCc3ccccc3)CC2)c(OC)c1	inactive: -8.32%
CCOc1ccc(C)cc1CN(CCCl)CCCl	inactive: 2.59%
